# CycPeptMPDB entries from one study

Data: CycPeptMPDB; original report Furukawa et al. 2016, doi:10.1021/acs.jmedchem.6b01246.

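Lipid, pH, incubation time, direction and concentration are not recorded in the data file. Other peptides of the study may be missing here. Entries at the database's floor value (log10 P of -10) are not listed.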

PAMPA is the parallel artificial membrane permeability assay, which has no cells and reads passive diffusion. Caco-2 values are permeabilities across monolayers of Caco-2 human intestinal cells. Permeability is in 10^-6 cm/s, converted from the database's log10 values; higher is more permeable.

For CCCC[C@@H]1NC(=O)[C@H](CC(C)C)N(C)C(=O)CN(CC2CCOCC2)C(=O)[C@H](Cc2ccc3ccccc3c2)NC(=O)CN(Cc2cc(CC(C)C)on2)C(=O)[C@H]2CCCN2C1=O the data give PAMPA 0.23 × 10^-6 cm/s. For CCCC[C@@H]1NC(=O)[C@H](CC(C)C)N(C)C(=O)CN(CCCN2CCCC2=O)C(=O)[C@H](Cc2ccc3ccccc3c2)NC(=O)CN(Cc2ccccc2Cn2cccn2)C(=O)[C@H]2CCCN2C1=O the data give PAMPA 0.87 × 10^-6 cm/s. Listed for CCCC[C@@H]1NC(=O)[C@H](CC(C)C)N(C)C(=O)CN(CCOC)C(=O)[C@H](Cc2ccc3ccccc3c2)NC(=O)CN(CCN2CCOCC2)C(=O)[C@H]2CCCN2C1=O: PAMPA 1.9 × 10^-6 cm/s and Caco-2 0.78 × 10^-6 cm/s. Listed for CCCC[C@@H]1NC(=O)[C@H](CC(C)C)N(C)C(=O)CN(CCOc2ccccc2)C(=O)[C@H](Cc2ccc3ccccc3c2)NC(=O)CN(CCN2CCOCC2)C(=O)[C@H]2CCCN2C1=O: PAMPA 0.32 × 10^-6 cm/s.

CCCC[C@@H]1NC(=O)[C@H](CC(C)C)N(C)C(=O)CN(CCOc2ccccc2)C(=O)[C@H](Cc2ccccc2)NC(=O)CN(Cc2cc(CC(C)C)on2)C(=O)[C@H]2CCCN2C1=O is reported with PAMPA 0.072 × 10^-6 cm/s. CCCC[C@@H]1NC(=O)[C@H](CC(C)C)N(C)C(=O)CN(CCCc2ccccc2)C(=O)[C@H](Cc2ccc3ccccc3c2)NC(=O)CN(CC)C(=O)[C@H]2CCCN2C1=O is reported with PAMPA 0.083 × 10^-6 cm/s. Listed for CCCC[C@@H]1NC(=O)[C@H](CC(C)C)N(C)C(=O)CN(CC2CCOCC2)C(=O)[C@H](Cc2ccc3ccccc3c2)NC(=O)CN(CC(C)C)C(=O)[C@H]2CCCN2C1=O: PAMPA 3 × 10^-6 cm/s. The entry for CCCC[C@@H]1NC(=O)[C@H](CC(C)C)N(C)C(=O)CN(CC2CCOCC2)C(=O)[C@H](CC(C)C)NC(=O)CN(CC(C)C)C(=O)[C@H]2CCCN2C1=O lists PAMPA 8.5 × 10^-6 cm/s.

For CCCC[C@@H]1NC(=O)[C@H](CC(C)C)N(C)C(=O)CN(CCCc2cnn(C)c2)C(=O)[C@H](Cc2ccc3ccccc3c2)NC(=O)CN(CC(C)C)C(=O)[C@H]2CCCN2C1=O the data give PAMPA 2.2 × 10^-6 cm/s. CCCC[C@@H]1NC(=O)[C@H](CC(C)C)N(C)C(=O)CN(CCCc2cnn(C)c2)C(=O)[C@H](Cc2ccccc2)NC(=O)CN(CCCOC(C)C)C(=O)[C@H]2CCCN2C1=O has PAMPA 4.7 × 10^-6 cm/s. CCCCCN1CC(=O)N(C)[C@@H](CC(C)C)C(=O)N[C@@H](CCCC)C(=O)N2CCC[C@@H]2C(=O)N(CCN2CCOCC2)CC(=O)N[C@@H](CC(C)C)C1=O has PAMPA 5.4 × 10^-6 cm/s. The entry for CCCC[C@@H]1NC(=O)[C@H](CC(C)C)N(C)C(=O)CN(Cc2ccccc2)C(=O)[C@H](Cc2ccc3ccccc3c2)NC(=O)CN(Cc2ccccc2Cn2cccn2)C(=O)[C@H]2CCCN2C1=O lists PAMPA 0.046 × 10^-6 cm/s.

CCCC[C@@H]1NC(=O)[C@H](CC(C)C)N(C)C(=O)CN(CCOc2ccccc2)C(=O)[C@H](C)NC(=O)CN(Cc2ccccc2Cn2cccn2)C(=O)[C@H]2CCCN2C1=O is reported with PAMPA 4.2 × 10^-6 cm/s. CCCC[C@@H]1NC(=O)[C@H](CC(C)C)N(C)C(=O)CN(CCc2cccnc2)C(=O)[C@H](CC(C)C)NC(=O)CN(CCCOC(C)C)C(=O)[C@H]2CCCN2C1=O is reported with PAMPA 3.3 × 10^-6 cm/s. For CCCC[C@@H]1NC(=O)[C@H](CC(C)C)N(C)C(=O)CN(CCCc2cnn(C)c2)C(=O)[C@H](C)NC(=O)CN(CCC)C(=O)[C@H]2CCCN2C1=O the data give PAMPA 0.14 × 10^-6 cm/s. The entry for CCCC[C@@H]1NC(=O)[C@H](CC(C)C)N(C)C(=O)CN(CC2CCOCC2)C(=O)[C@H](C)NC(=O)CN(Cc2cc(CC(C)C)on2)C(=O)[C@H]2CCCN2C1=O lists PAMPA 2.2 × 10^-6 cm/s.

The entry for CCCC[C@@H]1NC(=O)[C@H](CC(C)C)N(C)C(=O)CN(CC2CCCCC2)C(=O)[C@H](C)NC(=O)CN(Cc2ccc(Cl)cc2)C(=O)[C@H]2CCCN2C1=O lists PAMPA 0.98 × 10^-6 cm/s.

2 of these entries, quoted again:

The entry for CCCC[C@@H]1NC(=O)[C@H](CC(C)C)N(C)C(=O)CN(CCc2cccnc2)C(=O)[C@H](CC(C)C)NC(=O)CN(CCCOC(C)C)C(=O)[C@H]2CCCN2C1=O lists PAMPA 3.3 × 10^-6 cm/s.
The entry for CCCC[C@@H]1NC(=O)[C@H](CC(C)C)N(C)C(=O)CN(CC2CCOCC2)C(=O)[C@H](Cc2ccc3ccccc3c2)NC(=O)CN(CC(C)C)C(=O)[C@H]2CCCN2C1=O lists PAMPA 3 × 10^-6 cm/s.